Here are results for 1 molecule from publication PMC4864329, “In vitro and in vivo efficacy, toxicity, bio-distribution and resistance selection of a novel antibacterial drug candidate” (Scientific Reports, 2016).

Structures are written as SMILES. Read-outs that look alike come from different tables or passages of the source.

This data set deals with human lymphocytes. Here is the method: Gene toxicity was assessed by testing the potential of SET-M33L to induce micronuclei in human lymphocytes. Human lymphocytes in whole blood culture, stimulated to divide by addition of PHA 48 hours prior to treatment, were exposed to SET-M33L for 3 hours with and without exogenous metabolic activation (S9 mix), and for 20 hours without S9 mix.
Analysis of micronucleated cells was based on the criteria described by Fenech and Morley[37] and Fenech[38]. […] Human lymphocytes from informed donors were pooled and diluted with HML media (RPMI 1640, supplemented with 10% fetal calf serum, 0.2 IU/ml sodium heparin, 20 IU/ml penicillin, 20 μg/ml streptomycin and 2.0 mM L-glutamine). […] Cultures were established from the prepared (pooled) sample and dispensed as 5 ml aliquots (in sterile universal containers) so that each culture contained blood (0.4 ml), HML media (4.5 ml) and PHA solution (0.1 ml). The cultures were then incubated at 37 °C, and the cells were resuspended (twice daily) by gentle inversion. […]
The cells were harvested by centrifugation at 500 g for 5 minutes. […] The prepared slides were examined by fluorescence microscopy. The incidences of mononucleate, binucleate and polynucleate cells were assessed per culture per 1000 binucleate cells. […]

As to `COc1cc2c(c(OC)c1OC)-c1ccc(OC)c(=O)cc1[C@@H](NC(C)=O)CC2` [COL, Colchicine], the “Mean of binucleate cells containing micronuclei per 1000 cells” value turned out to be 19.0 per 1000 cells. For the same molecule, the “Mean of binucleate cells containing micronuclei per 1000 cells” value (3h − S9, 0.06 μg/ml, positive control) is listed as 20.5 per 1000 cells.
